According to patent US20250179484A1:

Target: MG64-1 Cas12k effector expressed with an N-terminal Twin Strep tag, an HRV3C protease site and a C-terminal 2xNLS tag
Assay: mass spectrometry of tryptic peptides from the SEC-eluted Cas12k pulldown complex; emPAI is a relative measure of abundance

- emPAI: 0.46
Substance: small prokaryotic ribosomal protein subunit S15 (from UniProt P0ADZ4 2-89)
